From patent US20100196310A1, “METHODS OF TREATING CANCER BY ADMINISTERING HUMAN IL-18 COMBINATIONS” (SMITHKLINE BEECHAM CORPORATION, priority 2007, published 2010) come the findings set out here.

This assay concerns MOPC315 murine plasmocytoma transfected with ErbB2 (HER2). The assay is described as follows: mIL-18 and HERCEPTIN combination, MOPC315 plasmocytoma, study MOPC.D3J03. The class given is in vivo, SCID mice. Particulars: HERCEPTIN as monotherapy. How it is done: Both the MOPC315.D3j005 and MOPC.D3j03 studies were analyzed to evaluate effect of murine IL-18 (SEQ ID NO:2) combination therapy with HERCEPTIN® on the growth of murine plasmocytoma. For this experiment we had to transfect MoPC315 cells with ErbB2 (HER2). For transfection, we used 1.5 ug ErbB2 expression vector (BioCat-108912-pcdna3.1(−) ErbB2) in a 6-well dish, as described using liposomal transfection with Lipofectamine™ and Optimem™ media from Gibco. Selective pressure neomycin (450 ug/ml G418 Sigma G6816) was added to the cultures after 2 days. Initial positive populations were selected by fluorescent microscopic inspection of in situ cultures stained with Alexafluor488 labeled HERCEPTIN® monoclonal antibody and cloned by limiting dilution (206434 p 70-72). D3 ErbB2 expression tested with Alexafluor488 labeled HERCEPTIN® flow cytometry. MOPC.D3 cell line was selected and used for evaluation of HERCEPTIN® and IL-18 anti-tumor efficacy.
This study was identical to the MOPC315.D3J005 study above (Example 4.a.) with the exception that the therapy started before the tumors became macroscopically apparent, on day 7 post-implantation. In addition, the maximal dose of HERCEPTIN was 100 μg/mouse, and the minimal dose was 25 μg/mouse in this study.
The data are expressed as mean+/−SD (FIG. 17), and as median+/−range (FIG. 18). […]

As for “HERCEPTIN®: an anti-Her2/neu receptor antibody”, the anti-tumor activity entry is “minimal activity”.
